Test results: ChEMBL document CHEMBL5338724, “METTL3 from Target Validation to the First Small-Molecule Inhibitors: A Medicinal Chemistry Journey” (J Med Chem, 2023)

Tests used:
[1] = Selectivity ratio of IC50 for inhibition of METTL3/METTL14 (unknown origin) to IC50 for inhibition of METTL1/WDR4 (unknown origin)
[2] = Selectivity ratio of IC50 for inhibition of METTL3/METTL14 (unknown origin) to IC50 for inhibition of METTL16 (unknown origin)

Structure (SMILES) | Ratio IC50 [1] | Ratio IC50 [2]
CCc1cc(NCCOC)c2ccc(CCc3cncc(-n4cc(-c5ccn(C)n5)c5c(N)ncnc54)c3)cc2n1 | > 100 | > 100
CNc1ccc2ccc(OCc3cncc(-n4cc([C@@H]5CCCO5)c5c(N)ncnc54)c3)cc2n1 | > 100 | > 100
CCc1cc(N(C)CCOC)c2ccc(CCc3cncc(-n4cc(-c5ccn(C)n5)c5c(N)ncnc54)c3)cc2n1 | > 100 | > 100
CNc1ccc2ccc(CCc3cncc(-n4cc(-c5ccn(C)n5)c5c(N)ncnc54)c3)cc2n1 | > 100 | 
Cn1ccc(-c2cn([C@@H]3O[C@H](COc4ccc5ccc(N6CCC6)nc5c4)[C@@H](O)[C@@H]3F)c3ncnc(N)c23)n1 | > 100 | > 100
